Test results reported in patent US8796220B2, “Vaccine for the prevention of the recurrence HER2/neu expressing cancer” (The Henry M. Jackson Foundation for the Advancement of …, priority 2007, dated 2014).

How the values were obtained:
[1] = design: species or system human; conditions: in vivo
[2] = test system: HER2/neu expressing breast cancer; experiment: Clinical recurrence, disease-free survival and mortality in E75 vaccine trials; assay type: in vivo, human
[3] = Delayed type hypersensitivity (DTH) to 100 μg E75 intradermally; assay type: in vivo, human
[4] = test system: IFN-γ producing cells; experiment: E75-specific interferon-γ ELISPOT; assay type: cell-based, human
[5] = Local reactions (LR) at injection site; assay type: in vivo, human
[6] = in vivo

## CC[C@H](C)[C@H](NC(=O)[C@@H](N)CCCCN)C(=O)N[C@@H](Cc1ccccc1)C(=O)NCC(=O)N[C@@H](CO)C(=O)N[C@@H](CC(C)C)C(=O)N[C@@H](C)C(=O)N[C@@H](Cc1ccccc1)C(=O)N[C@@H](CC(C)C)C(=O)O [E75]
[1]
  Grade 4 or 5 systemic toxicities: no grade 4 or 5 systemic toxicities observed
  Local toxicity grade 1, patients: 81%
  Local toxicity grade 2, patients: 19%
  Maximum local toxicity grade 1, patients: 82%
  Maximum local toxicity grade 2, patients: 18%
  Patients with 50% dose reduction in GM-CSF for significant local or systemic reactions: 18.7%
  Systemic toxicity grade 0, patients: 12%
  Systemic toxicity grade 1, patients: 71%
  Systemic toxicity grade 2, patients: 14%
  Systemic toxicity grade 3, patients: 2%
[2]; HLA-A2+ vaccinated patients
  Recurrence rate: 8.2%
[2]; HLA-A3+ vaccinated patients
  Recurrence rate: 9.1%
[2]; median follow-up 20 months, 171 enrolled, observation group 14.2%, P=0.04
  Recurrence rate in the vaccinated group: 5.6%
[2]; median follow-up 20 months, control 77%
  Disease-free survival rate, vaccinated group: 92.5%
[2]; median follow-up 20 months, four deaths in observation group
  Deaths in the vaccinated group: one
[2]; median follow-up 26 months, 186 enrolled, observation 14.8%, P=0.15
  Recurrence rate in the vaccine group: 8.3%
[2]; p=0.27, shorter median follow-up in ODG
  Clinical recurrence rate, ODG compared to SDG: trend toward lower recurrence rates
[2]; vaccinated HER2/neu low-expressors (LE), control 18.2%
  Recurrence rate: 10.7%
[2]; vaccinated HER2/neu over-expressors (OE), control 18.2%
  Recurrence rate: 13.8%
[2]; vaccinated IHC 1+ patients, control 20%, p=0.04
  Mortality: 0%
[2]; vaccinated LE patients, control 6.8%, p=0.08
  Mortality: 0.0%
[2]; vaccinated recurrent patients, control 50% (6/12), P=0.04
  Bone only recurrence, share of recurrences: 0%
[3]; HLA-A2+ patients
  Post-vaccination DTH: 15.1±1.9 mm
[3]; HLA-A3+ patients
  Post-vaccination DTH: 10.5±2.7 mm
[3]; LE patients
  Post-DTH: 15.9 ± 1.9 mm
[3]; NN patients, pre-vaccine 2.8±0.8 mm
  Post-vaccination DTH response: 10.9±1.5 mm
[3]; NP patients
  Post-vaccination DTH response: 17.3±2.4 mm
[3]; ODG, p=0.00021 vs SDG
  Orthogonal mean DTH response to the peptide: 21.5+2.5 mm
[3]; OE patients
  Post-DTH: 12.8 ± 2.0 mm
[3]; SDG
  Orthogonal mean DTH response to the peptide: 11.3+1.3 mm
[3]; all vaccinated patients
  Patients with positive post-vaccine DTH: 74%
[3]; patients receiving <6000 μg E75
  Post-vaccination DTH response: 13.3±1.9 mm
[3]; patients receiving a total of 6000 μg E75
  Post-vaccination DTH response: 25.1±4.0 mm
[4]; 78 of 194 paired assays
  Paired assays showing increased IFN-γ producing cells with booster: 40.2%
[4]; 255 total assays pre-booster, after primary series
  Pre-booster assays showing detectable IFN-γ producing cells: 54.5%
[4]; HLA-A3 patients, baseline 0-30, p=0.04
  E75-specific interferon-γ ELISPOT, range post-vaccination: 3-448 spots/10^6 cells
[4]; after booster, 11 patients
  Patients with increased IFN-γ producing cells in at least 50% of the assays: 50%
[4]; after booster, 20/22 patients
  Patients with increased IFN-γ producing cells in at least one assay: 91%
[5]; >9 month group
  Local reaction at vaccine 3 of primary series: 80
[5]; >9 months group
  Local reaction at the end of the primary series: 85±8 mm
[5]; booster >9 months from primary series (n=13)
  Local reaction to booster: 79±4 mm
[5]; booster ≦9 months from primary series (n=12), p=0.01
  Local reaction to booster: 103±7 mm
[5]; ≦9 month group, p=0.04
  Local reaction at vaccine 3 of primary series: 97
[5]; ≦9 months group
  Local reaction at the end of the primary series: 81±5 mm
[6]
  Grade 2 or 3 systemic toxicities, booster: no grade 2 or 3 systemic toxicities
  Grade 3 or 4 toxicities with booster: no grade 3 or 4 toxicities
  Patients with grade 1 systemic toxicity, booster: eleven
  Patients with grade 2 local toxicity, booster: 2 patients
  Patients with higher grade toxicity during the booster than during the primary series: 4%
  Tolerability of the booster dose: very well tolerated
